Molecules are shown by their SMILES.

A short description of the data set: UV-pH titration, pKa in aqueous medium (SiriusT3 fast UV pKa method). The settings on record: ionic strength adjusted water (0.15 M KCl), without HSA, Exp. aqueous pKa1 (pKa of monoprotic APIs), absence of HSA, ISA-water 0.15 M KCl, 25.0 °C.

Broadly, the pKa is the pH at which an ionisable group is half protonated. Lower therefore signals a group that gives up its proton readily. `COc1cc(Cc2cnc(N)nc2N)cc(OC)c1OC` [Trimethoprim]: the pKa amounted to 7.13 ± 0.01.

These data come from PMC7307925, “Human Serum Albumin Binding in a Vial: A Novel UV-pH Titration Method To Assist Drug Design” (Journal of Medicinal Chemistry, 2020).
